## Apparent affinities of Ab-14 variants for a coronavirus HR2 peptide

Binding partner: SARS-CoV-2 spike HR2 peptide, sequence PDVDLGDISGINAS.

Parent: Ab-14, a human scFv built as VH, a 15-residue (Gly4Ser)3 linker, VL. Only the CDRs of the heavy chain vary.
VH: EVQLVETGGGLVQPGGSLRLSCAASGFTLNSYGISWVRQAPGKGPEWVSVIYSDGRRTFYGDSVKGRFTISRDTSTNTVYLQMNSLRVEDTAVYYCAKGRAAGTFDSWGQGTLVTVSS
VL: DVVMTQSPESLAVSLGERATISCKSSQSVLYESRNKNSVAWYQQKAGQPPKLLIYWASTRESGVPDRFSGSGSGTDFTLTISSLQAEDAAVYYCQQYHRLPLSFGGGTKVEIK

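The starting antibody came from a phage panning campaign against this peptide. Designed CDR sequences, proposed from the first random library and measured here. Group labels follow the data file (En: ensemble of fine-tuned language models; HC: hill climbing; Gen: genetic algorithm; Gibbs: Gibbs sampling; a sequence that several methods proposed may carry one label only). The assay is AlphaSeq: two haploid yeast populations carry antibody and antigen on their surface. Pairs that bind mate more often; barcode pairs of the diploids are counted by sequencing. Read counts were normalised to the haploid input and turned into Kd by a linear fit to BCL2-family pairs of known affinity, for each replicate. Each pool was mated in six replicate cultures.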

Variants are written as CDR1, CDR2 and CDR3 of the heavy chain (limits as in the source). Parent: GFTLNSYGIS, VIYSDGRRTFYGDSVK, GRAAGTFDS.
Variants here have more than six changes.
Affinities are written as log10 Kd with Kd in nM; a lower number is a better binder.
Averages over replicates are reported, and they cover detected replicates only.
"n.d." marks a missing value. The strain was present, yet no cells mated with the target were sequenced in that replicate, which points to weak or no binding.

CDR-H1	CDR-H2	CDR-H3	group	replicates, log10 nM	mean log10 Kd (nM)
GFDLNEYGIS	VIYADGQRTAYADSVK	GEVAGTFDQ	En_Gen	-0.33 -0.19 -0.51 -0.77 -0.56 -0.38	-0.46
GFDLQEYGIS	VIYADGARKSYTNSVK	GVWGTTMYV	En_Gibbs	n.d. n.d. n.d. n.d. n.d. n.d.	n.d.
GDVLKEYGIS	VIYADGMRTSYVQDVK	GQKSGSFSV	En_Gibbs	n.d. n.d. n.d. n.d. n.d. n.d.	n.d.
GFDLNEYGIS	VIYADGMRTAYTDSVK	GTNAGTFDQ	En_Gen	-0.40 -0.38 -0.55 -0.69 -0.51 -0.42	-0.49
GFDLNEYGIS	VIYADGRRTFYADSVK	GSTAGTFDM	En_HC	-1.08 -1.17 -1.33 -1.39 -1.13 -0.89	-1.17
GFDLNEYGIS	VIYADGMRTMYADSVK	GENAGTFDV	En_Gen	-0.32 -0.17 -0.49 -0.50 -0.30 -0.04	-0.30
GFDLNEYGIS	VIYADGRRTAYLDSVK	GNAAGTFDV	En_HC	-0.46 -0.58 -0.89 -0.69 -0.55 -0.53	-0.62
GFDLNEYGIS	VIYADGMRTAYSDSVK	GEVAGTFVQ	En_HC	-0.14 -0.91 -0.43 -0.26 -0.10 -0.68	-0.42
GFDLNEYGIS	VIYADGMRTVYADSVK	GNVAGTFDV	En_Gen	-0.15 -1.12 -1.07 -0.88 -0.56 -0.59	-0.73
GFDLEEYGIS	VIYADGIRCSYAQAFK	GKNGQVFAV	En_Gibbs	n.d. n.d. n.d. n.d. n.d. n.d.	n.d.
GFDLDEYGIS	VIYADGQRTAYTDSVK	GENAGTFDV	En_Gen	-1.04 -1.05 -1.07 -0.63 -1.19 -0.52	-0.92
GFDLNEYGIS	VIYADGKRTAYVDSVK	GENAGTFDM	En_Gen	-0.57 -0.81 -0.89 -0.94 -0.71 -0.08	-0.67
GFDLNEYGIS	VIYADGMRTAYADSVK	GEAAGTFDV	En_Gen	-0.44 0.35 -0.27 -0.52 -0.50 -0.27	-0.28
GFDLNEYGIS	VIYADGRRTYYIDSVK	GENAGTFDM	En_HC	-0.63 -0.85 -0.08 -0.97 -0.40 -0.59	-0.59
GFDLNEYGIS	VIYADGRRTFYADSVK	GQNAGTFDI	En_HC	0.45 0.44 -0.14 -0.22 0.62 0.01	0.19
GFDLNEYGIS	VIYADGQRTYYADDVK	GENAGTFDV	En_Gen	-0.49 -0.60 -0.40 -0.62 -0.44 -0.28	-0.47
GFDLNEYGIS	VIYADGMRTQYIDSVK	GNAAGTFDS	En_HC	0.61 -0.41 -0.21 -0.62 -0.66 0.20	-0.18
GFDLNEYGIS	VIYADGMRTAYADSVK	GGNAGTFDM	En_Gen	-0.06 -0.44 -0.66 -0.91 -0.74 -0.37	-0.53
GFDLNEYGIS	VIYADGFRTFYSDSVK	GEVAGTFDS	En_HC	n.d. 1.66 2.71 n.d. n.d. 2.00	2.12
GFDLEDYGIS	VIYADGRRTAYADSVK	GENAGTFDV	En_Gen	-0.02 0.13 0.22 -0.14 0.70 0.25	0.19
GFDLDQYGIS	VIYADGIRSVYADAVK	GHEGGILLV	En_Gibbs	n.d. n.d. n.d. n.d. n.d. n.d.	n.d.
GFDLNEYGIS	VIYADGRRTFYADDVK	GENAGTFDF	En_HC	-0.14 0.22 0.19 -0.17 0.35 0.02	0.08
GFVLDEYGIS	VIYADGMRTVYAEDFK	GQNGGNFHH	En_Gibbs	n.d. n.d. n.d. n.d. n.d. n.d.	n.d.
GQDLAEYGIS	VIYADGKRTMYANDVK	GHNDGQGVT	En_Gibbs	n.d. n.d. n.d. n.d. n.d. n.d.	n.d.
GFDLNEYGIS	VIYADGRRTFYADSVK	GNVAGTFVQ	En_HC	-0.58 -0.49 -0.98 -0.94 -0.79 -0.75	-0.76
GFDIQEYGIS	VIYADGQRAYYSDAVK	GNIGAIFSD	En_Gibbs	n.d. n.d. n.d. n.d. n.d. n.d.	n.d.
GFDLNEYGIS	VIYADGMRTAYADNVK	GEIAGTFDV	En_Gen	-0.49 -0.20 -0.47 -0.60 -0.43 -0.28	-0.41
GFDLNEYGIS	VIYADGVRTAYADKVK	GNVAGTFDQ	En_Gen	-0.12 0.46 -0.28 -0.30 -0.40 -0.08	-0.12
GPNLEEYGIS	VIYADGIRTAYKDSVK	GDVAGYGVF	En_Gibbs	0.17 -0.31 0.48 -0.40 -0.26 0.46	0.02
GFNLDEYGIS	VIYADGRRTFYADSVK	GQVAGTFDA	En_HC	-0.37 -0.44 -0.44 -0.62 -0.68 -0.35	-0.48
GFDLNEYGIS	VIYADGMRTAYADDVK	GSNAGTFDQ	En_Gen	-0.34 0.35 -0.57 -0.48 -0.60 -0.60	-0.37
EFDLNNYGIS	VIYADGLRTAYETNFK	GINAGTFTS	En_Gibbs	1.11 n.d. 1.54 n.d. n.d. n.d.	1.33
GFDLQEYGIS	VIYADGKRSMYTNDVK	GELGLGEVI	En_Gibbs	n.d. n.d. n.d. n.d. n.d. n.d.	n.d.
GFDLDEYGIS	VIYADGRRTFYADSVK	GENAGTFDI	En_HC	-0.06 -0.10 -0.67 -0.47 -0.48 -0.25	-0.34
GFNLDEYGIS	VIYADGRRTFYADSVK	GEIAGTFDF	En_HC	-0.35 -0.39 -0.81 -0.59 -0.85 0.08	-0.49
GFDLDEYGIS	VIYADGMRTFYSDSVK	GEVAGTFDV	En_Gen	0.46 0.18 0.30 0.23 0.06 0.25	0.25
GFDLNEYGIS	VIYADGRRTAYADSVK	GEIAGTFKF	En_HC	-0.94 -0.41 -0.34 -0.75 -0.80 -0.42	-0.61
GFDLNEYGIS	VIYADGMRTAYADSVK	GQVAGTFDT	En_Gen	0.17 -0.30 -0.21 -0.26 -0.40 -0.66	-0.27
GFDINEYGIS	VIYADGMRTAYADSVK	GNQAGTFDV	En_Gen	-0.35 -0.15 -0.28 -0.23 -0.12 -0.11	-0.21
GFDLNEYGIS	VIYADGRRTFYTDSVK	GEVAGTFDN	En_HC	n.d. n.d. n.d. n.d. n.d. n.d.	n.d.
GFDLESYGIS	VIYADGRRSAYHDSVK	GTNGSVSFV	En_Gibbs	n.d. n.d. n.d. n.d. n.d. n.d.	n.d.
GFDLDEYGIS	VIYADGQRTFYADSVK	GENAGTFDA	En_HC	-0.19 0.14 -0.17 -0.23 0.27 -0.10	-0.05
GFDLEEYGIS	VIYADGMRVSYTNTVK	GQNSMISTA	En_Gibbs	n.d. n.d. n.d. n.d. n.d. n.d.	n.d.

The last 3 entries again:

CDR-H1	CDR-H2	CDR-H3	group	replicates, log10 nM	mean log10 Kd (nM)
GFDLESYGIS	VIYADGRRSAYHDSVK	GTNGSVSFV	En_Gibbs	n.d. n.d. n.d. n.d. n.d. n.d.	n.d.
GFDLDEYGIS	VIYADGQRTFYADSVK	GENAGTFDA	En_HC	-0.19 0.14 -0.17 -0.23 0.27 -0.10	-0.05
GFDLEEYGIS	VIYADGMRVSYTNTVK	GQNSMISTA	En_Gibbs	n.d. n.d. n.d. n.d. n.d. n.d.	n.d.

Background: pairings of all heavy chain designs with three empty control strains gave a value in 1% of cases (median 2.08, 5th percentile 0.84). Values in that range, when seen in few replicates, are hard to tell from nonspecific mating.
A sequence measured in both rounds can read differently, since the two assays cover different ranges.
The parent sequence was in this pool as ten entries: three were never detected, three once, and four in most replicates, with averages from 0.34 to 2.37.
The authors averaged sequences with at least three values out of six and counted those with two or fewer as poor binders.

Values reported by Li et al. 2023, doi:10.1038/s41467-023-39022-2 (FLAb copy).